The nature of data set [1]: Dynamic light scattering (DLS) of HSA conjugates. The conditions noted are these: 10–20 uM in MQ; for Size: triplicates, error = standard deviation. The data set is classed as physicochemical. How it is done:
Measurements of HSA-based compounds (10 μM in MQ) were performed at 25 °C using a Zetasizer Nano S (Malvern Instruments, Malvern, England) equipped with a He/Ne Laser (λ = 633 nm) and a narrow band filter at a fixed scattering angle of 173 °. Volume distribution of DLS measurements of compounds were used to determine the compounds size distribution.
Table S 2: Sizes (d. nm) and PDIs of low valency TS-HSA conjugates determined by DLS measurements (10–20 uM in MQ).
Measurements were performed in triplicates; errors are given as standard deviation.
4.2.7 Preparation of saturated TS-HSA neoglycoalbumins
DBCO47-HSA (0.3 mg, 3.24 nmol, 1 eq.) was dissolved in 50 mM phosphate buffer with 8 M urea and
2 mM EDTA (pH = 8) to a final protein concentration of 1 mg/mL. The azide functionalized TS
(855 μmol, 264 eq. or 5.6 eq/DBCO) dissolved in MQ (10 mg/mL) was added and the reaction solution
was inverted (10 rpm) at room temperature for 1 day. Afterwards, the reaction solution was purified
(1 x reaction buffer, 5 x MQ) and concentrated via ultracentrifugation spin filter (Vivaspin, PES,
10 kDa). The product was lyophilized and obtained in the form of a blue lyophilizate quantitatively.
Table S 3: Summary table of synthesized conjugates of the saturated valency regime.
Code Conjugate MALDI-ToF-MS DoM:
Figure S 2: Agarose gel electrophoresis of saturated NCs carrying different TSs (Number of Ts: Man: 43, Man 3: 45, (Man) 3:
42, (Man3)3: 38) as well as precursor conjugates DBCO 47-HSA and control conjugate C I (left Cy5-channel, right Coomassie
brilliant blue staining).
Table S 4: Sizes (d. nm) and PDIs of saturated TS-HSA conjugates determined by DLS measurements (10 –20 uM in MQ).
Conjugate Size (d. nm) PDI
(1 picture or pasted object on this page, not shown here)

The next data set concerns GM-CSF BMDCs. As to the kind of experiment: FACS analysis of cellular uptake of Cy5-labeled HSA conjugates in GM-CSF BMDCs. The data set is classed as cell-based, murine. The conditions noted are these: 50 nM conjugate, overnight incubation, Cy5 signal by FACS. As to the method:
Murine bone marrow cells (2·10^5/mL for GM-CSF supplemented culture) were seeded in 12-well suspension culture plates (Greiner Bio-One, Frickenhausen, BW, Germany) in culture medium (IMDM, 2 mM L-glutamine, 100 U/mL penicillin G, 100 μg/mL streptomycin (Sigma-Aldrich, Deisenhofen, BY, Germany) and 50 μM β-mercaptoethanol (Carl Roth, Karlsruhe, BW, Germany) containing 5% FBS (PAN-Biotech, Aidenbach, BY, Germany)) supplemented with recombinant murine GM-CSF (10 ng/mL) (Miltenyi Biotec, Bergisch Gladbach, NRW, Germany). Cells were kept at 37 °C, 95% relative humidity, and 5% CO2. Culture media was replenished on day 3 and 6 with GM-CSF supplemented cell culture medium.
After treatment, GM-CSF BMDCs and splenocytes were harvested, washed with staining buffer (PBS, 1% FBS, 0.5 mM EDTA) and incubated with rat antimouse CD16/CD32 antibody (clone 2.4G2; 15 min, 4 °C) to prevent antibody binding to Fcγ receptors. Following this, the samples were incubated with fluorescence-labeled antibodies (20 min, 4 °C). Then, samples were washed with PBS and incubated with a flexible viability dye (FVD, 1:1000 in PBS, 30 min, 4 °C) to identify live/dead cells. Measurements were carried out using an Attune NxT flow cytometer and data were analyzed using Attune NxT software (both are from Thermo Fisher, Waltham, MA, USA).
To investigate the influence of the designed TSs in a more application-focused setting, we proceeded with in vitro experiments using receptors organized in their natural form. For this purpose, we synthesized different HSA-based NCs decorated with all tested TSs (section 4.2 in the Supporting Information) either within the low-valency regime carrying one to three mono- and trivalent TSs (TS I–III), six and nine monovalent TSs (TS VI, TS IX) per NC or within the saturated valency regime saturated with the maximum possible number of TSs per NC (38–45, TSsat). […] The low degrees of modification are supposed to allow a systematic study of potential contributions of avidity effects of the trivalent TSs to receptor interaction and cellular uptake, which would be otherwise superimposed by avidity effects originating from NCs with high valency. Untreated cells (UT) or cells treated with the TLR7/8 agonist R848 as well as cells treated with control conjugates, which are Cy5-labeled only (C I), DBCO-modified (13 groups, C II) or DBCO-modified and capped via SPAAC with triethylene glycol residues (C III), were used as controls for comparison. An in vitro study comprising overnight incubation of Granulocyte macrophage colony-stimulating factor (GM-CSF) BMDCs together with the Cy5-labeled TS-HSA conjugates and following FACS analysis was conducted (Figure and Figure ). […] Observed effects on uptake levels thus are assumed not to be impacted by receptor availability. Also, an influence of slow receptor recycling, which affects their availability, is unlikely for CD206 and CD209 due to the reported rapid recycling kinetics and the long incubation time overnight. , Additionally, receptor depletion, which is most relevant for nano rods and large NCs (>60 nm), is supposed to be neglectable as well due to the size (∼7 nm) and globular shape of the HSA-NCs. ,− In the following, the cellular uptake as a measure of targeting capability and thus indirectly also binding strength of the four groups of TS-HSA conjugates (M, TM, MD, TMD, Figure C) is analyzed and evaluated regarding their general uptake trend and the influence of (i) TS surface density and NC valency, (ii) the epitope type, and (iii) epitope clustering. The general uptake trends of NCs in BMDCs functionalized with increasing numbers of statistically attached TSs are visualized with a linear plot of the cellular uptake against the number of TSs per NC for all conjugates (Figure A) and by plots grouping respective conjugates to enable comparison of NC valency and surface density within each TS type (Figure C). […]
A general note: A flow cytometer gives signals particle by particle.

“Also recorded” adds a separate entry of the source.

Here are results for 19 substances from publication PMC12606641, “Surface Density of Mono- and Trivalent High-Mannan-Derived Targeting Structures with Different Affinities Impacts Cellular Uptake of Human Serum Albumin-Derived Nanocarriers” (Biomacromolecules, 2025).

Take [Man]3-HSA [M III]: in data set [1], the PDI is listed as 0.926 and the Size amounted to 2.8 ± 0.4 nm·days.

For the substance “M IX: Cy5-HSA nanocarrier with 9 ManN3 TS attached”, in data set [1], the PDI was 0.827 and the Size amounted to 7.0 ± 1.0 nm·days.

In data set [1], “TMD III: Cy5-HSA nanocarrier with 3 (Man3)3N3 TS attached” yielded a PDI of 0.697 and a Size of 6.8 ± 0.8 nm·days.

On to [Man3]45-HSA [TMsat], for which the cellular uptake result in the data set with GM-CSF BMDCs is listed as “outperforms TMDsat”. Also, in data set [1], the PDI is given as 0.692 and the Size stood at 6.8 ± 0.1 nm·days.

“MD III: Cy5-HSA nanocarrier with 3 (Man)3N3 TS attached”: in data set [1], the PDI is reported as 0.816 and the Size came out at 3.7 ± 0.6 nm·days.

In the case of “MD I: Cy5-HSA nanocarrier with 1 (Man)3N3 TS attached”, the cellular uptake result with GM-CSF BMDCs is given as “significantly enhanced cell uptake; also recorded: significantly higher cellular uptake than M I”. Further, in data set [1], the PDI is given as 0.628 and the Size worked out at 8.0 ± 1.0 nm·days.

Consider “M II: Cy5-HSA nanocarrier with 2 ManN3 TS attached”, for which, in data set [1], the PDI is recorded as 1.000 and the Size came out at 4.2 ± 1.4 nm·days.

In the case of [(Man3)3]38-HSA [TMDsat], the cellular uptake result in the data set on GM-CSF BMDCs is given as “significant decrease in cellular uptake”. In data set [1], this substance came in with a PDI of 0.697 and a Size of 11.7 ± 0.8 nm·days.

As to “M VI: Cy5-HSA nanocarrier with 6 ManN3 TS attached”, the cellular uptake result in the data set with GM-CSF BMDCs is on record as “significant benefit”. For the same substance, in data set [1], the PDI stood at 1.000 and the Size was found to be 4.6 ± 1.3 nm·days.

In data set [1], “TMD II: Cy5-HSA nanocarrier with 2 (Man3)3N3 TS attached” returned a PDI of 0.829 and a Size of 7.6 ± 0.1 nm·days.

As to [Man]43-HSA [Msat], the cellular uptake entry with GM-CSF BMDCs is listed as “highest cellular uptake”. Besides, in data set [1], the PDI stood at 0.581 and the Size stood at 6.3 ± 1.3 nm·days.

Regarding “C I: control: Cy5-labeled HSA, maleimide ring opened”, the cellular uptake result in the data set with GM-CSF BMDCs is “limited unspecific uptake”. In data set [1], this substance had a PDI of 0.703 and a Size of 6.8 ± 0.3 nm·days.

In data set [1], “TM IX: Cy5-HSA nanocarrier with 9 Man3N3 TS attached” returned a PDI of 0.848 and a Size of 5.4 ± 0.2 nm·days.

Take “TMD I: Cy5-HSA nanocarrier with 1 (Man3)3N3 TS attached”: the cellular uptake result in the data set with GM-CSF BMDCs is recorded as “significantly enhanced cell uptake”. In data set [1], this substance yielded a PDI of 0.691 and a Size of 6.2 ± 0.2 nm·days.

For the substance “TM I: Cy5-HSA nanocarrier with 1 Man3N3 TS attached”, in data set [1], the PDI stood at 0.978 and the Size was determined as 9.6 ± 1.0 nm·days.

Turning to [(Man)3]42-HSA [MDsat], the cellular uptake entry with GM-CSF BMDCs is listed as “significant decrease in cellular uptake”. For the same substance, in data set [1], the PDI worked out at 0.570 and the Size was 8.3 ± 0.1 nm·days.

“C III: control: HO-PEG3-HSA, 13 DBCO groups saturated with capping reagent”: the cellular uptake result in the data set on GM-CSF BMDCs is “limited unspecific uptake”. In data set [1], this substance displayed a PDI of 0.975 and a Size of 4.8 ± 0.5 nm·days.

In data set [1], “TM III: Cy5-HSA nanocarrier with 3 Man3N3 TS attached” returned a PDI of 0.855 and a Size of 6.7 ± 0.4 nm·days.

“C II: control: DBCO-HSA with 13 DBCO groups attached”: in the data set with GM-CSF BMDCs, the cellular uptake entry is on record as “limited unspecific uptake”. In data set [1], this substance showed a PDI of 0.844 and a Size of 5.7 ± 0.2 nm·days.
